The values that follow are results of earlier work, collected in paper PMC13421293 (Thrombosis and Haemostasis, 2025).

For the data set the following is noted: compared with healthy volunteers who received fentanyl; cited from earlier work.

Consider `COC(F)(F)C(Cl)Cl` [methoxyflurane], for which the “hemodynamic parameters such as stroke volume, cardiac output, or mean arterial pressure” value is “no significant impact”.
